The values that follow are results of earlier work, collected in publication PMC11339341.

By UniProt entry, the sequences of proteins in these tests, tags left out. Residues count along the entry.
UniProt P19235, 25-250: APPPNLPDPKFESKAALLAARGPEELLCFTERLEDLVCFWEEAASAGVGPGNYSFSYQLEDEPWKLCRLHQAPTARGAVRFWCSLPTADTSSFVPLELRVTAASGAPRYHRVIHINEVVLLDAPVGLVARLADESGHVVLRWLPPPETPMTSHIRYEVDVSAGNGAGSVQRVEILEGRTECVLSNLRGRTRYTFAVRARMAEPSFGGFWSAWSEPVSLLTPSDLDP
UniProt P01589, 22-240, chain 1 of 3: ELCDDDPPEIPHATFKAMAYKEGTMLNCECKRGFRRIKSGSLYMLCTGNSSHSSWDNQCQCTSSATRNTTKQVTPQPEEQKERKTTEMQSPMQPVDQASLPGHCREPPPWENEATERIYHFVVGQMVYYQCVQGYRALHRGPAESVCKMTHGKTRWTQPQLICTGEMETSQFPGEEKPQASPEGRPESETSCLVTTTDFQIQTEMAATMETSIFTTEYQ

Read-outs that look alike come from different tables or passages of the source.

The target of data set [1] is Erythropoietin receptor (Homo sapiens) (UniProt P19235).
The target is the same in data set [2]. The source holds these as a separate data set.
Data set [3] has as its target IL-2Rα:IL-2Rβ:γc (Homo sapiens) (UniProt P01589).

The Kd is the constant that tells how readily two partners part at equilibrium. For the substance “Erythropoietin site 1 (from UniProt P01588)”, the dissociation constant Kd in data set [1] is 1 nM.
“Erythropoietin site 2 (from UniProt P01588)”: the Kd in data set [2] is 1000 nM.
As to IL-2 (from UniProt P60568), in data set [3], the dissociation constant (Kd) was 0.01 nM.
